In patent publication US20080152735A1, “Herbal Extract Having Anti- Influenza Virus Activity and Preparation of Same” (NATIONAL DEFENSE MEDICAL CENTER, priority 2006, published 2008):

Test system: MDCK cells (Madin-Darby Canine Kidney Epithelial Cells)

NC(=O)c1ncn([C@@H]2O[C@H](CO)[C@@H](O)[C@H]2O)n1 [Ribavirin, reference compound]
D: ++++ (key: absorbance percentage≦25 was recorded as +/−; >25≦50 recorded as +; >50≦75 as ++; >75≦100 as +++; >100 as ++++)
